Experimental data: patent US9044491B2, “Method for improving blood flow using stilbenoid derivatives” (The Board of Trustees of the University of Arkansas, priority 2010, dated 2015)

The chains behind the UniProt entries cited, without tags or fusion partners. Residues count along the entry.
UniProt Q9HAW8, 26-530 limits assumed: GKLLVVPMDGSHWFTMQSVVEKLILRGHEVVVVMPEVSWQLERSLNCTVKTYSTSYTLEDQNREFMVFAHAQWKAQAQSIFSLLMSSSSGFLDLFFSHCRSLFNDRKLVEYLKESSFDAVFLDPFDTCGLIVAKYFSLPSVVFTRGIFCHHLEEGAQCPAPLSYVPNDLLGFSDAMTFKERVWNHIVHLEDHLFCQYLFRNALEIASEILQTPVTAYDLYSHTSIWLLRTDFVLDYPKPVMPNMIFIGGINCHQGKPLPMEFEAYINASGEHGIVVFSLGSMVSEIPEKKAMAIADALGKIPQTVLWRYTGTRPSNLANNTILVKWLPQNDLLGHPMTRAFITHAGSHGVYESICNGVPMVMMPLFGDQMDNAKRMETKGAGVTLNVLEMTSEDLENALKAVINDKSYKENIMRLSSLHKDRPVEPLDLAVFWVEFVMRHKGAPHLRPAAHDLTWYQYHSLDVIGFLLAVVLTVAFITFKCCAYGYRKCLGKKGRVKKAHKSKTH
UniProt P22309, 26-533 limits assumed: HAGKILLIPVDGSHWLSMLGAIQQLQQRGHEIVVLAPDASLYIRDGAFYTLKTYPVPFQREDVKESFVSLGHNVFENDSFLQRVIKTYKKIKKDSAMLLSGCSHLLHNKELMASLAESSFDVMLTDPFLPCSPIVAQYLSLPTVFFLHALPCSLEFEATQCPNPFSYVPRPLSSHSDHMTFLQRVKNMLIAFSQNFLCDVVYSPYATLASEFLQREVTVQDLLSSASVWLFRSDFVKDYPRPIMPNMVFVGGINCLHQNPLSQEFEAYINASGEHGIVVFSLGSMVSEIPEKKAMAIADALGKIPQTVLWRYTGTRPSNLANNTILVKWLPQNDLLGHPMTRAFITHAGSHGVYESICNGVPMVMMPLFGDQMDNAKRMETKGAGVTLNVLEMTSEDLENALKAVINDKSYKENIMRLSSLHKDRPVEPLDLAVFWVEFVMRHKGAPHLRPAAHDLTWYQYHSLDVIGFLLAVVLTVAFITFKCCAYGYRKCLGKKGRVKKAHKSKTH

Assays:
human UGT1A10 = human UGT1A10 (Homo sapiens, UniProt Q9HAW8); assay: Glucuronidation by recombinant human UGT1A10 (activity and kinetic constants); assay type: in vitro ADME; details: product 3-glucuronide (3G)
human UGT1A1 = human UGT1A1 (Homo sapiens, UniProt P22309); assay: Glucuronidation by recombinant human UGT1A1 (activity and kinetic constants); assay type: in vitro ADME

CC(C)/C=C/c1c(O)cc(/C=C/c2ccc(O)c(O)c2)cc1O
--: Kinetics (human UGT1A10) | Km (human UGT1A10) | Kinetics (human UGT1A1; product 3-glucuronide (3G)) | Km (human UGT1A1; product 3-glucuronide (3G)) | Kinetics (human UGT1A1; product 4′-glucuronide (4′G)) | Km (human UGT1A1; product 4′-glucuronide (4′G))
